Test results published in ChEMBL document CHEMBL4396872, “Pharmacokinetics-Driven Optimization of 4(3 H)-Pyrimidinones as Phosphodiesterase Type 5 Inhibitors Leading to TPN171, a Clinical Candidate for the Treatment of Pulmonary Arterial Hypertension” (J Med Chem, 2019).

Amino acid sequences for entries named in this document (tags omitted). A change or cut given only in a name is not applied to a line headed by its entry.
UniProt O00408, whole entry: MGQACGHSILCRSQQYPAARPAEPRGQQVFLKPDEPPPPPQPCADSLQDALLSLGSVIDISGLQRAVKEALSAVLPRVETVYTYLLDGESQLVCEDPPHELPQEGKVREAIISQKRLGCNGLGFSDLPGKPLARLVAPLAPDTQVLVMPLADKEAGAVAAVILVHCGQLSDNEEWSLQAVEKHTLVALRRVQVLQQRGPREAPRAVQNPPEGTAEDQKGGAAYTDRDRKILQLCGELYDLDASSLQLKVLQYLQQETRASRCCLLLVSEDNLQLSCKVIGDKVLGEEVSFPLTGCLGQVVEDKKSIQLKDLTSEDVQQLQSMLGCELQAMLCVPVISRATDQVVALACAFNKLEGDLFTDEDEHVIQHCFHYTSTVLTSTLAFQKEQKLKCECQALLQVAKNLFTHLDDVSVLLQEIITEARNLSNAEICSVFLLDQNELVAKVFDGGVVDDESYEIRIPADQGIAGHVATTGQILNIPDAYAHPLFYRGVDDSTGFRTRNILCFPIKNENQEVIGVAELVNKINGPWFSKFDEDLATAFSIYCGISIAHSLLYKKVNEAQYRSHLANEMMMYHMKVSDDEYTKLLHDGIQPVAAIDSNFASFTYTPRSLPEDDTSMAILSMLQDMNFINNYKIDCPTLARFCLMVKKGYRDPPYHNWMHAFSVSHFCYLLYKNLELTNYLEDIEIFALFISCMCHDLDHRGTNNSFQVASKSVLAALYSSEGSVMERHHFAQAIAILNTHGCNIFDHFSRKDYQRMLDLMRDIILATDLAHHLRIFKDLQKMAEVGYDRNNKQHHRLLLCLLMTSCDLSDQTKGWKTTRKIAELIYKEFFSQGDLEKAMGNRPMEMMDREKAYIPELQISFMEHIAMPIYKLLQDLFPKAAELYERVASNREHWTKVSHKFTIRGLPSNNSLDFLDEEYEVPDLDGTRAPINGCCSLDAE
UniProt O76083: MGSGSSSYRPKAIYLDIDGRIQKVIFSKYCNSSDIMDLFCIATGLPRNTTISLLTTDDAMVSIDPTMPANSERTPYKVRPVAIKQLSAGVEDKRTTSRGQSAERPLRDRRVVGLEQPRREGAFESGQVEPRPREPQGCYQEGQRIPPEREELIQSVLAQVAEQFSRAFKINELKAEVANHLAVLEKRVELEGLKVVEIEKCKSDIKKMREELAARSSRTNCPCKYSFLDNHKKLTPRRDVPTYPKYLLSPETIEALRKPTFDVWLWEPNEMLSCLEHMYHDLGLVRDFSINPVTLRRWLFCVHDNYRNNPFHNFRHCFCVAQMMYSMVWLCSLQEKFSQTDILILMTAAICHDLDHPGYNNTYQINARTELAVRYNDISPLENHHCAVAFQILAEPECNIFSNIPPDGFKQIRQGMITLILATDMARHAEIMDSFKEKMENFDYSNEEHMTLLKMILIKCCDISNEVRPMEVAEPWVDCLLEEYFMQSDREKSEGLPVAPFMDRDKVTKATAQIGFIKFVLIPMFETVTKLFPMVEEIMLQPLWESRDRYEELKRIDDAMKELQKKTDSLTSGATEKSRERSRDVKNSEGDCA

Experiments:
[1] = target: cGMP-dependent 3',5'-cyclic phosphodiesterase (Homo sapiens, UniProt O00408); experiment: Inhibition of human PDE2A1 expressed in baculovirus infected sf9 cells using [3H]cAMP as substrate measured after 30 mins by scintillation proximity assay
[2] = target: High affinity cGMP-specific 3',5'-cyclic phosphodiesterase 9A (Homo sapiens, UniProt O76083); experiment: Inhibition of N-terminal GST-tagged full length human PDE9A2 expressed in baculovirus infected sf9 cells using [3H]cGMP as substrate measured after 30 mins by scintillation proximity assay

IC50 [1]: > 10 µM
IC50 [2]: > 10 µM
Structure (SMILES): CCCc1nn(C)c2c(=O)[nH]c(-c3cc(S(=O)(=O)N4CCN(C)CC4)ccc3OCC)nc12
